Source: PMC10681723, “The N-terminus of Spt16 anchors FACT to MCM2–7 for parental histone recycling” (Nucleic Acids Research, 2023)

B1: wild-type FACT (FACT WT), purified through TAP-tagged full-length Spt16 (complex, budding yeast (S. cerevisiae))
chain 1: MEELNIDFDVFKKRIELLYSKYNEFEGSPNSLLFVLGSSNAENPYQKTTILHNWLLSYEFPATLIALVPGKVIIITSSAKAKHLQKAIDLFKDPESKITLELWQRNNKEPELNKKLFDDVIALINSAGKTVGIPEKDSYQGKFMTEWNPVWEAAVKENEFNVIDISLGLSKVWEVKDVNEQAFLSVSSKGSDKFMDLLSNEMVRAVDEELKITNAKLSDKIENKIDDVKFLKQLSPDLSALCPPNYKFNFDLLDWTYSPIIQSGKKFDLRVSARSTNDQLYGNGCILASCGIRYNNYCSNITRTFLIDPSEEMANNYDFLLTLQKEIVTNILKPGRTPKEVYESVIEYIEKTKPELVPNFTKNIGSLIGLEFRDSNFILNVKNDYRKIQRGDCFNISFGFNNLKDSQSANNYALQLADTVQIPLDETEPPRFLTNYTKAKSQISFYFNNEEEDNNKKKSSPATKVPSKPDRNSKILRTKLRGEARGGAEDAQKEQIRKENQKKLHEKLEKNGLLRFSAADANGPDSEPRQYFKKYESYVRDSQLPTNIRDLRIHVDWKSQTIILPIYGRPVPFHINSYKNGSKNEEGEYTYLRLNFNSPGSSGGISKKVEELPYEESADNQFVRSITLRSKDGDRMSETFKQIADLKKEATKREQERKALADVVQQDKLIENKTGRTKRLDQIFVRPNPDTKRVPSTVFIHENGIRFQSPLRTDSRIDILFSNIKNLIFQSCKGELIVVIHIHLKNPILMGKKKIQDVQFYREASDMSVDETGGGRRGQSRFRRYGDEDELEQEQEERRKRAALDKEFKYFADAIAEASNGLLTVENTFRDLGFQGVPNRSAVFCMPTTDCLVQLIEPPFLVINLEEVEICILERVQFGLKNFDMVFVYKDFNKPVTHINTVPIESLDFLKQWLTDMDIPYTVSTINLNWATIMKSLQDDPYQFFLDGGWNFLATGSDDEASDESEEEVSEYEASEDDVSDESAFSEDEEGSEVDDDISGDESEDYTGDESEEGEDWDELEKKAARADRGANFRD
chain 2: MSTDFDRIYLNQSKFSGRFRIADSGLGWKISTSGGSAANQARKPFLLPATELSTVQWSRGCRGYDLKINTKNQGVIQLDGFSQDDYNLIKNDFHRRFNIQVEQREHSLRGWNWGKTDLARNEMVFALNGKPTFEIPYARINNTNLTSKNEVGIEFNIQDEEYQPAGDELVEMRFYIPGVIQTNVDENMTKKEESSNEVVPKKEDGAEGEDVQMAVEEKSMAEAFYEELKEKADIGEVAGDAIVSFQDVFFTTPRGRYDIDIYKNSIRLRGKTYEYKLQHRQIQRIVSLPKADDIHHLLVLAIEPPLRQGQTTYPFLVLQFQKDEETEVQLNLEDEDYEENYKDKLKKQYDAKTHIVLSHVLKGLTDRRVIVPGEYKSKYDQCAVSCSFKANEGYLYPLDNAFFFLTKPTLYIPFSDVSMVNISRAGQTSTSSRTFDLEVVLRSNRGSTTFANISKEEQQLLEQFLKSKNLRVKNEDREVQERLQTALGSDSDEEDINMGSAGEDDESVDEDFQVSSDNDADEVAEEFDSDAALSDAEGGSDEERPSKKPKVE
notes: Spt16, subunit of the FACT complex, budding yeast; Pob3, subunit of the FACT complex, budding yeast; co-purified with Spt16-TAP; Eluted with TEV; also called FACT WT complex; source: yeast cells, purified (IgG beads, 500 mM NaCl wash, TEV elution)
B2: mutant FACT lacking the Spt16-N domain (FACTΔN), purified through TAP-tagged Spt16-ΔN (complex, budding yeast (S. cerevisiae))
chain 1: MRGGAEDAQKEQIRKENQKKLHEKLEKNGLLRFSAADANGPDSEPRQYFKKYESYVRDSQLPTNIRDLRIHVDWKSQTIILPIYGRPVPFHINSYKNGSKNEEGEYTYLRLNFNSPGSSGGISKKVEELPYEESADNQFVRSITLRSKDGDRMSETFKQIADLKKEATKREQERKALADVVQQDKLIENKTGRTKRLDQIFVRPNPDTKRVPSTVFIHENGIRFQSPLRTDSRIDILFSNIKNLIFQSCKGELIVVIHIHLKNPILMGKKKIQDVQFYREASDMSVDETGGGRRGQSRFRRYGDEDELEQEQEERRKRAALDKEFKYFADAIAEASNGLLTVENTFRDLGFQGVPNRSAVFCMPTTDCLVQLIEPPFLVINLEEVEICILERVQFGLKNFDMVFVYKDFNKPVTHINTVPIESLDFLKQWLTDMDIPYTVSTINLNWATIMKSLQDDPYQFFLDGGWNFLATGSDDEASDESEEEVSEYEASEDDVSDESAFSEDEEGSEVDDDISGDESEDYTGDESEEGEDWDELEKKAARADRGANFRD
chain 2: MSTDFDRIYLNQSKFSGRFRIADSGLGWKISTSGGSAANQARKPFLLPATELSTVQWSRGCRGYDLKINTKNQGVIQLDGFSQDDYNLIKNDFHRRFNIQVEQREHSLRGWNWGKTDLARNEMVFALNGKPTFEIPYARINNTNLTSKNEVGIEFNIQDEEYQPAGDELVEMRFYIPGVIQTNVDENMTKKEESSNEVVPKKEDGAEGEDVQMAVEEKSMAEAFYEELKEKADIGEVAGDAIVSFQDVFFTTPRGRYDIDIYKNSIRLRGKTYEYKLQHRQIQRIVSLPKADDIHHLLVLAIEPPLRQGQTTYPFLVLQFQKDEETEVQLNLEDEDYEENYKDKLKKQYDAKTHIVLSHVLKGLTDRRVIVPGEYKSKYDQCAVSCSFKANEGYLYPLDNAFFFLTKPTLYIPFSDVSMVNISRAGQTSTSSRTFDLEVVLRSNRGSTTFANISKEEQQLLEQFLKSKNLRVKNEDREVQERLQTALGSDSDEEDINMGSAGEDDESVDEDFQVSSDNDADEVAEEFDSDAALSDAEGGSDEERPSKKPKVE
notes: Spt16 of budding yeast with residues 2–484 deleted; Pob3, subunit of the FACT complex, budding yeast; co-purified with Spt16-ΔN-TAP; Eluted with TEV; also called Spt16-ΔN FACT; Spt16ΔN form of the FACT complex; source: yeast cells, purified (IgG beads, 500 mM NaCl wash, TEV elution)

Molecular target: Recombinant Saccharomyces cerevisiae histone H3/H4 (Saccharomyces cerevisiae)
Assay: pull-down; GST-Mcm2HBD on Glutathione Sepharose first loaded with histone H3/H4 and washed, then wild-type or Spt16-ΔN FACT in 0.8 ml buffer A150 overnight, 4°C; CBB staining
Conditions: both partners purified

| Binder | binding result |
| --- | --- |
| B1 | binds |
| B2 | binds |
